Biological target: Human immunodeficiency virus type 1 reverse transcriptase (Human immunodeficiency virus 1, UniProt Q72547)
Assay: Inhibition of HIV1 reverse transcriptase assessed as reduction in biotin-labeled dUTP incorporation into DNA using poly(A) x oligo(dT)15 as template/primer after 1 hr by ELISA
Procedure, shortened: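 Wild-type HIV-1 RT was assayed with a plate-bound homopolymer poly[A]·oligo[dT]₁₅ template/primer and biotin-dUTP, following the Roche RT kit protocol. Incorporated biotin-dUTP, a measure of RT activity, was quantified by ELISA. Percentage inhibition was calculated by formula, and IC₅₀ is the concentration inhibiting biotin-dUTP incorporation by 50%.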

For `Cc1cc(C#N)cc(C)c1Oc1nc(Nc2ccc(C#N)cc2)nc(N)c1Br` [ETRAVIRINE], the IC50 was 130 nM.

Source: ChEMBL document CHEMBL3414545, “Fused heterocycles bearing bridgehead nitrogen as potent HIV-1 NNRTIs. Part 4: design, synthesis and biological evaluation of novel imidazo[1,2-a]pyrazines” (Eur J Med Chem, 2015)
